Consider four molecules from PubChem BioAssay AID912 (National Center for Advancing Translational Sciences (NCATS), 2007).

This is a selection; strong and weak results do not stand in their true shares. Some of these compounds have results that are not shown, active ones among them. Records with an inconclusive call do not appear. Active and inactive are the calls of the source. Calls follow the shape of the full dose curve.
% is scaled to controls: 0 for no effect and ±100 for the full control effect.

This assay in a line: qHTS Assay for Anthrax Lethal Toxin Internalization. Also: nearly all actives have a fitted effect of over 50% in size. To be noted: Cells, FRET ratio (460/530); at 8 µM (top of the series) unless noted. A general note: In qHTS, concentration-response curves come from the screen itself.
Take `CN1CCC[C@H](OC(=O)[C@](O)(c2ccccc2)C2CCCC2)C1`: the activity change, negative = inhibition was inactive: -14.4%.
With `CN1CC[C@H](OC(=O)[C@](O)(c2ccccc2)C2CCCC2)C1` the figure was inactive: -11.1%; with `O=C(OC1CN2CCC1CC2)C(CO)(c1ccccc1)c1ccccc1` (centres undefined), inactive: -6.03% [at 40 µM]; with `CN(C)c1cccc(C(=O)NCC2(N(C)C)CCCCC2)c1`, inactive: -7.72% [at 40 µM].
